In the assay the target is IBAT (Homo sapiens, UniProt Q12908). Description: in vitro test assay for the effect on bile acid uptake in IBAT-transfected cells. The source says: These properties may be assessed, for example, using an in vitro test assay for studying the effect on bile acid uptake in IBAT-transfected cells (Smith L., Price-Jones M. J., Hugnes K. T. and Jones N. R. A.; J Biomolecular Screening, 3, 227-230) or in vivo by studying the effect on radiolabelled bile acid absorption in mice/rats (Lewis M. C., Brieaddy L. E. and Root C., J., J Lip Res 1995, 36, 1098-1105).

Chains of the proteins cited; added tags and fusions are not shown.
UniProt Q12908, whole entry: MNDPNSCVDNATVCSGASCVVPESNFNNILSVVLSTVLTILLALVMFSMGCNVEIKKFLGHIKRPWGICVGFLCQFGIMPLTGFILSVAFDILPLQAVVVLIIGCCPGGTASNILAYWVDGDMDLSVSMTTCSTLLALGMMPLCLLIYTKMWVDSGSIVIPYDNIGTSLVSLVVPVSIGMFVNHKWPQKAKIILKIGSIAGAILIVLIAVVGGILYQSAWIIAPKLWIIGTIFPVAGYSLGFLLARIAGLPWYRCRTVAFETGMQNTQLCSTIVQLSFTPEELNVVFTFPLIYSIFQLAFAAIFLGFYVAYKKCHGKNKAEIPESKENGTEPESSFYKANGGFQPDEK

The text below walks through data of US6906058B2.

As a reminder, the IC50 is the concentration needed to halve the response being measured. A low value points to higher potency. On to `CCCCC1(CC)CN(c2ccccc2)c2cc(Br)c(OCC(=O)NCCCS(=O)(=O)O)cc2S(=O)(=O)C1` (stereo not shown), for which the IC50 is 2100 nM.
